In general, Kd refers to the constant that tells how readily two partners part at equilibrium. A low value points to higher affinity.

By UniProt entry, the sequences of proteins in these tests, tags left out. Residues count along the entry.
UniProt P22303, 32-614 limits assumed: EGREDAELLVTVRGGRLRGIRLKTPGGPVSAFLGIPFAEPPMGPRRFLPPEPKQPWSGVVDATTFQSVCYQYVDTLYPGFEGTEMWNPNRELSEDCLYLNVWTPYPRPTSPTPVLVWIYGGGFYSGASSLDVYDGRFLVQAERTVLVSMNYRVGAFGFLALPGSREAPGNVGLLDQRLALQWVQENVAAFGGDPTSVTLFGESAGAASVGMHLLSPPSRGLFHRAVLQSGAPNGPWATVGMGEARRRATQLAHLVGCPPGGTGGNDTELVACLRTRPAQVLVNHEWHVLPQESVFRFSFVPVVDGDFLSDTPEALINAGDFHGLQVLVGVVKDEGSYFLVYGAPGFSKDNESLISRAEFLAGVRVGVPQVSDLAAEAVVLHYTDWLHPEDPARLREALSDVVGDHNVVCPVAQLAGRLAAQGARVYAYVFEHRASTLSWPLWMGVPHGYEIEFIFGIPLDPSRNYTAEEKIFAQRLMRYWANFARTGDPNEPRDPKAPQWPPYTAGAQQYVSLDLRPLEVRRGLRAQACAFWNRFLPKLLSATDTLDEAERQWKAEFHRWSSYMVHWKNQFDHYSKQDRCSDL

For the experiment, the target named is Acetylcholinesterase (Homo sapiens, UniProt P22303). As to the kind of experiment: Binding affinity to paraoxon-inhibited AChE (unknown origin).
`O/N=C/c1cc[n+](Cc2ccc(C[n+]3ccc(/C=N/O)cc3)cc2)cc1` came in with a Kd of 107 µM.

With `CC(=O)/C(C)=N/O`, binding was put at a Kd of 393 µM.

In the case of `NC(=O)c1cc[n+](Cc2ccccc2C[n+]2ccc(/C=N/O)cc2)cc1`, the Kd stood at 174 µM.

Take `O/N=C/c1cc[n+](Cc2ccccc2C[n+]2ccc(/C=N/O)cc2)cc1`: the Kd amounted to 112 µM.

Consider `C[n+]1cccc(C=NO)c1`, for which binding was put at a Kd of 175 µM.

`NC(=O)c1cc[n+](Cc2ccc(C[n+]3ccc(/C=N/O)cc3)cc2)cc1` registered an equilibrium dissociation constant (Kd) of 173 µM.

On to `CC(=O)/C=N/O`, for which binding was characterised by a dissociation constant (Kd) of 128 µM.

For the origin of these results see BindingDB's records for 25190468.
